Activity calls are given as the source filed them. The calls are words filed in the database; no cut-off is given here.

This experiment deals with MDA-MB-468. As to the kind of experiment: Antiproliferative activity against human MDA-MB-468 cells assessed as reduction in cell viability at >3.125 uM incubated for 48 hrs by CellTiter-Glo assay. Type of experiment: functional, cell-based. In general terms: Cellular ATP, detected with luciferase, serves as a proxy for viable cell number.

As to `CC1(C)OB(c2ccc3c(c2)Oc2cc(B4OC(C)(C)C(C)(C)O4)ccc2C32OC(=O)c3cc(-n4cc(CCCCCCCCCOCc5cc(N(CCCl)CCCl)ccc5B5OC(C)(C)C(C)(C)O5)nn4)ccc32)OC1(C)C`, the result was inactive.

For the origin of these results see ChEMBL document CHEMBL6087388, “Hydrogen peroxide responsive theranostics for cancer-selective activation of DNA alkylators and real-time fluorescence monitoring in living cells” (Eur J Med Chem, 2024).
